Test results reported in PMC12147714 (FEMS Microbiology Letters, 2025).
Converted amounts (≈) assume the structure as drawn.

Amino acid sequences for entries named in this document (tags omitted). Residues count along the entry.
UniProt C7C422, 29-270 limits assumed: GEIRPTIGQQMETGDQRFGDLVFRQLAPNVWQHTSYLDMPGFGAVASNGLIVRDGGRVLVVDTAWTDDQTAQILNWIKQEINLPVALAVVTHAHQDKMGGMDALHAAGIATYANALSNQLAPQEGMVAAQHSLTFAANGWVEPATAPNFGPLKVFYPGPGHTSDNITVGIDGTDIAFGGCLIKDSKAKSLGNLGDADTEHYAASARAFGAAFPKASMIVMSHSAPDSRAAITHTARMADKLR

What was measured:
[1] = system: PAO1 TnoprD producing VIM-1; experiment: MIC and checkerboard by broth microdilution, recombinant strain; format: cell-based, Pseudomonas aeruginosa; conditions: VIM-1 TnoprD; antibiotic alone
[2] = system: PAO1 TnoprD producing NDM-1; experiment: as above; format: cell-based, Pseudomonas aeruginosa; conditions: NDM-1 TnoprD; antibiotic alone
PAO1 producing KPC-2 = conditions: antibiotic alone
NDM-1 = NDM-1 (Klebsiella pneumoniae, UniProt C7C422); experiment: IC50, inhibition of cephalothin hydrolysis by crude extract

Structure (SMILES) | MIC [1] | MIC [2] | MIC (PAO1 producing KPC-2) | IC50 (NDM-1)
C[C@@H](O)[C@H]1C(=O)N2C(C(=O)O)=C(SCCN=CN)C[C@H]12 [IPM, imipenem] | 128 µg/mL | 128 µg/mL | 128 µg/mL (≈ 428 µM) | 
O=C(O)c1c(F)ccc2c1OB(O)[C@@H]1C[C@H]21 [XER, xeruborbactam] |  |  |  | 4.3 µM
